Binding of CDR-mutated scFvs to a peptide of the spike HR2 region

Reference: Li et al. 2023, doi:10.1038/s41467-023-39022-2. File: FLAb, binding data.

All variants were tested on one target, the spike HR2 peptide PDVDLGDISGINAS (SARS-CoV-2).

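The starting antibody came from a phage panning campaign against this peptide. The variants were designed computationally from a first round of random CDR variants and then made and measured. Their group label is 14H_GP_HC (GP: Gaussian process model; HC: hill climbing; a sequence that several methods proposed may carry one label only). Affinity was read by AlphaSeq, a pooled yeast mating assay with surface-displayed partners. Mating (16 h, 30 °C) was followed by selection of diploids and sequencing of their barcodes. Scores were corrected for input abundance and mapped to Kd with protein pairs of known affinity run in the same pool. Mating was done six times.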

The variants keep the light chain, the linker and the frameworks of Ab-14 (scFv order VH, the linker GGGGSGGGGSGGGGS, VL).
VH: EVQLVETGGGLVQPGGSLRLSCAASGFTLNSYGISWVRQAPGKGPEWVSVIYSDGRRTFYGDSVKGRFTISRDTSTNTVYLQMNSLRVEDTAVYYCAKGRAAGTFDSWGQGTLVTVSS
VL: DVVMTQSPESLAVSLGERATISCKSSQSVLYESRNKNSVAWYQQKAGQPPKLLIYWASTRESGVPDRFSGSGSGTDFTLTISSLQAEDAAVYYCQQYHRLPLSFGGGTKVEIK

Changes read parent residue, position, new residue, counted from the first residue of the VH shown.
Numbers give log10(Kd / nM), so 0 is 1 nM and 3 is 1 µM. Smaller is tighter.
"nd" marks a missing value. The strain was present, yet no cells mated with the target were sequenced in that replicate, which points to weak or no binding.

{"changes": "F27M+S53A+F105N", "log10 Kd, replicates": "1.54 / 1.54 / 1.15 / 0.81 / 0.98 / 1.86", "empty controls": "0 of 18"}
{"changes": "N30D+S63K+S107V", "log10 Kd, replicates": "1.41 / 0.97 / 1.40 / 1.20 / 1.07 / 1.66", "empty controls": "1 of 18 (2.92)"}
{"changes": "T28E+S31N+G61D+R100Q+A101L", "log10 Kd, replicates": "0.62 / 0.52 / 0.10 / 0.50 / -0.03 / 0.17", "empty controls": "0 of 18"}
{"changes": "S31E+S63A+A101C", "log10 Kd, replicates": "nd / nd / nd / 2.34 / 1.31 / 2.47", "empty controls": "0 of 18"}
{"changes": "S53A+A101E+D106K+S107I", "log10 Kd, replicates": "2.46 / 1.13 / 1.68 / 1.16 / 2.17 / 1.32", "empty controls": "0 of 18"}
{"changes": "S53A+R100K+D106K+S107Y", "log10 Kd, replicates": "nd / nd / nd / nd / nd / nd", "empty controls": "1 of 18 (1.73)"}
{"changes": "T28A+G61A+R100Q+A101L", "log10 Kd, replicates": "nd / nd / nd / 0.94 / nd / 0.69", "empty controls": "0 of 18"}
{"changes": "N30D+G61A+R100Q+A101L", "log10 Kd, replicates": "-0.10 / 0.55 / 0.16 / 0.09 / -0.12 / 0.00", "empty controls": "0 of 18"}
{"changes": "S31D+F59M+G61L", "log10 Kd, replicates": "1.08 / 1.67 / 1.15 / 0.82 / 0.96 / 1.68", "empty controls": "0 of 18"}
{"changes": "T28D+G61T+R100Q+A101L", "log10 Kd, replicates": "-0.10 / -0.08 / 0.05 / -0.52 / -0.53 / -0.42", "empty controls": "0 of 18"}
{"changes": "S31E+G61K+R100Q", "log10 Kd, replicates": "nd / -0.86 / nd / -0.22 / nd / -0.72", "empty controls": "1 of 18 (-0.25)"}
{"changes": "S31D+F59W+G61I+D106W", "log10 Kd, replicates": "nd / nd / nd / nd / nd / nd", "empty controls": "0 of 18"}
{"changes": "T28E+S31D+A101C", "log10 Kd, replicates": "nd / nd / nd / nd / nd / nd", "empty controls": "0 of 18"}
{"changes": "N30D+G61S+A102G+S107V", "log10 Kd, replicates": "1.25 / 1.54 / 1.17 / 1.34 / 0.89 / 2.59", "empty controls": "0 of 18"}
{"changes": "T28C+S31D+F59M+G61I", "log10 Kd, replicates": "nd / nd / nd / nd / nd / nd", "empty controls": "0 of 18"}
{"changes": "S31D+F59W+D106T", "log10 Kd, replicates": "nd / nd / nd / nd / nd / nd", "empty controls": "1 of 18 (1.15)"}
{"changes": "S31E+G61H+A101S", "log10 Kd, replicates": "0.89 / 1.14 / 0.76 / 0.93 / 1.00 / 2.26", "empty controls": "0 of 18"}
{"changes": "G61T+R100M+A101K", "log10 Kd, replicates": "1.56 / 1.90 / nd / 2.18 / 2.52 / 2.36", "empty controls": "1 of 18 (3.99)"}

Repeated from above, the 2 best binders with a signal in all replicates:

changes,"log10 Kd, replicates",empty controls
T28D+G61T+R100Q+A101L,-0.10 / -0.08 / 0.05 / -0.52 / -0.53 / -0.42,0 of 18
N30D+G61A+R100Q+A101L,-0.10 / 0.55 / 0.16 / 0.09 / -0.12 / 0.00,0 of 18

The parent sequence was in this pool as ten entries: three were never detected, three once, and four in most replicates, with averages from 0.34 to 2.37.
Empty control strains, which show no peptide, gave a signal in 1% of pairings with all heavy chain designs; the median was 2.08 and 95% of these signals were weaker than 0.84. No background was subtracted. Also given: how often the same scFv was detected with the empty control strains, with their mean in brackets.
In the paper, a design with two or fewer of six values counts as a poor binder.
Values of this round are not directly comparable with the first-round values of the same sequences.